Values quoted from earlier work, collected in US5250572A (priority 1992, dated 1993).

Tested on: serotonin uptake
Conditions: words; background, known from earlier patents; cited from earlier work

In the case of `CNCCC(Oc1ccc(C(F)(F)F)cc1)c1ccccc1` (racemic) [fluoxetine hydrochloride, dl-N-methyl-3-[4-(trifluoromethyl)phenoxy]-3-phenylpropylamine], the “serotonin / monoamine uptake blockade” value is given as “selective serotonin (5-hydroxytryptamine, 5HT) uptake inhibitor”.

Counter-ions that a name gives are not always drawn.
